Data reported in patent US11976137B2, “Compounds for use as apelin receptor antagonists” (Cambridge Enterprise Limited, priority 2018, dated 2024).

Tests used:
human apelin receptor [1] = molecular target: T1, human apelin receptor (Homo sapiens, UniProt P35414)
T1 sequence (P35414 1-380): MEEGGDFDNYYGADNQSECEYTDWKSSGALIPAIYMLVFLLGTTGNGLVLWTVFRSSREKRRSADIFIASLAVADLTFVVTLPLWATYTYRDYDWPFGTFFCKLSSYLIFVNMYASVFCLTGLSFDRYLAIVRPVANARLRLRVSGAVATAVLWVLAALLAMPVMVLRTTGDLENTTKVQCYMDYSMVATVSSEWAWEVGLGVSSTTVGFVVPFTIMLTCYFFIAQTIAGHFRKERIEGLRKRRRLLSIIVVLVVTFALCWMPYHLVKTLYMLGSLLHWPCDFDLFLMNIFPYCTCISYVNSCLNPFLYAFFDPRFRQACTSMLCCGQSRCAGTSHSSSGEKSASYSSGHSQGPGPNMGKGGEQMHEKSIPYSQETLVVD
Procedure: (§1) cAMP (cAMP Hunter™ eXpress AGTRL1 CHO-K1 GPCR Assay, DiscoverX Corporation, Ltd. Birmingham, UK) and β-arrestin (PathHunter® eXpress AGTRL1 CHO-K1 β-Arrestin GPCR Assay, DiscoverX Corporation, Ltd. Birmingham, UK) assays were performed according to the manufacturer's instructions. The cAMP assay measures the canonical signalling pathway through the G-protein. The β-arrestin assay measures the alternative signalling pathway and receptor internalisation.
For recruitment of β-arrestin, CHO-K1 cells artificially expressing the human apelin receptor were seeded in Cell Plating medium into 96-well plates and incubated for 48 hours at 37° C. in 5% CO2. Concentration response curves were constructed to test peptides (1 pmol/L-30 μmol/L) which were diluted in Cell Plating medium and added to the cells for 90 minutes at 37° C. If no response was obtained then test peptides were investigated as antagonists. […] Detection reagents were then added for a 2-hour incubation at room temperature. […] If no agonist response was obtained, test compounds were investigated for antagonist activity by repeating [Pyr]apelin-13 concentration response curves in the absence and presence of a single concentration (1-30 μmol/L of test peptide). Data were analysed as described for the cAMP assay using the Gaddum/Schild EC50 function in GraphPad Prism 6 to determine values of pA2.

human apelin receptor [2] = molecular target: T1, human apelin receptor; conditions: antagonism of [Pyr1]apelin-13 inhibition of forskolin-stimulated cAMP
Procedure: Antagonist activity at the apelin receptor was measured in two assays.
as §1
Cells were then incubated with a mixture of Lysis Buffer, cAMP Buffer D and Detection Reagents for 1 hour at room temperature, followed by a 3 hour incubation with cAMP Reagent A at room temperature. Chemiluminescence was read using the LumiLITE™ Microplate Reader (DiscoverX). Concentration-response data for agonists, measured in relative light units (RLU), were analysed using a 4 parameter logistic equation in GraphPad Prism 6 (La Jolla, CA, USA) to determine values of potency expressed as the pD2 value (negative logo of the EC50 (where EC50 is the concentration producing half maximal response)), and maximum response (EMAX). Mean data from replicate experiments were normalised as percentage inhibition of forskolin-stimulated cAMP production.

## CCCC[C@H](NC(=O)[C@H](CCCNC(=N)N)NC(=O)C(C)(C)NC(=O)[C@H](CCCNC(=N)N)NC(=O)[C@H](CC)NC(=O)[C@H](Cc1c[nH]cn1)NC(=O)[C@H](CCCCN)NC(=O)[C@H](CC)NC(=O)[C@H](CCCC)NC(=O)[C@H](CCCNC(=N)N)NC(=O)[C@@H]1CCCN1C(=O)[C@H](CCCNC(=N)N)NC(=O)[C@@H]1CCC(=O)N1)C(=O)N[C@@H](Cc1cc(F)c(F)c(F)c1)C(=O)O [MM301, Pyr-RPR-Nle-Abu-KH-Abu-R-Aib-R-Nle-(3,4,5-trifluorophenylalanine)]
Human apelin receptor [1]
  DRx β-Arrestin pA2: 7.28
Human apelin receptor [2]
  DRx cAMP pA2: 6.29
